ChEMBL document CHEMBL1137232 (J Med Chem, 2004)

By UniProt entry, the sequences of proteins in these tests, tags left out.
UniProt Q9WTR4, whole entry: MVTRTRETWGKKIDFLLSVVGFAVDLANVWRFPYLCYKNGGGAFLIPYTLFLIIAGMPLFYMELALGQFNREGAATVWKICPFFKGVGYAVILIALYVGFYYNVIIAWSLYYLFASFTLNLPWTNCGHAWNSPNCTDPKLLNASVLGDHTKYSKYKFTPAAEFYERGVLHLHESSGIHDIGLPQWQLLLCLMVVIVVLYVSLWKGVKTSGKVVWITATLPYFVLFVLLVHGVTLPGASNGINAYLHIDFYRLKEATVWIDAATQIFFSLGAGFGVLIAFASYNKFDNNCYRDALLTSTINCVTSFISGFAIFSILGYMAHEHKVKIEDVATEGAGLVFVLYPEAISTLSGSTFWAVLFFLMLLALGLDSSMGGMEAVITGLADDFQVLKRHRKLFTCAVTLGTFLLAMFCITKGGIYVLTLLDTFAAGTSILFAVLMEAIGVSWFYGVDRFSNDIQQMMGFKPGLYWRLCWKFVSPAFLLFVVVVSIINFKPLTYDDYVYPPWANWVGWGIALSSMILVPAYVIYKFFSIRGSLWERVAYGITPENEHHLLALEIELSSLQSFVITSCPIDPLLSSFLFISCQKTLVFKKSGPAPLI

Molecular target: Norepinephrine transporter (Rattus norvegicus, UniProt Q9WTR4)
Test: Inhibition of high affinity uptake by the norepinephrine transporter from rat synaptosomal nerve endings by using [3H]NE as radioligand

With NC(=O)C[S+]([O-])C(c1ccccc1)c1ccccc1 (stereo unspecified) [MODAFINIL] the Ki was over 10 µM.
